Results taken from BindingDB's records for doi:10.1021/jm701457j (University of Maryland, 2008).

Sequences of proteins named here, by UniProt entry; tags and fusion partners are left off. A change or cut given only in a name is not applied to a line headed by its entry.
UniProt P41145: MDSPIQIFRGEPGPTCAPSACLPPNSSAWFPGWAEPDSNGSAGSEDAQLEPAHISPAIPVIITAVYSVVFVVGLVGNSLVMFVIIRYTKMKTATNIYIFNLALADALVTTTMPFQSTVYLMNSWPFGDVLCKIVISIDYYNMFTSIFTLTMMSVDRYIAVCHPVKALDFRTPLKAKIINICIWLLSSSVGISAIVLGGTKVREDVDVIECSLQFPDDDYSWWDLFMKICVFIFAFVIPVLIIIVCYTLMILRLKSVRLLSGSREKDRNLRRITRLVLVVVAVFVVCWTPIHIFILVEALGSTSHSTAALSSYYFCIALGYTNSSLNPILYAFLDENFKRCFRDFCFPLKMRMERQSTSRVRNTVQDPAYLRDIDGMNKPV

Molecular target: Kappa-type opioid receptor (Homo sapiens, UniProt P41145)

## COc1ccc2c3c1OC1C(O)C=CC4C(C2)N(C)CCC341 (stereo unspecified) [NSC_223652]
  Ki: > 10 µM
